Columns and labels:
C57/Bl6J DIO mice = assay: Increasing dosages of Compound 72 over 7 days in diet-induced obesity (DIO) mouse model; assay type: in vivo; conditions: 30 mg/kg PO QD 7 days
Description: Male C57/Bl6J DIO mice were obtained from The Jackson Laboratory (Sacramento, Calif.). […] Animals were accustomed to these conditions for at least 2 weeks before experimentation and used at approximately 24 weeks of age.
Significance was accepted when p<0.05.
Male C57/Bl6J DIO mice were obtained from The Jackson Laboratory (Sacramento, Calif.). […] Animals were accustomed to these conditions for at least 2 weeks before experimentation and used at approximately 26 weeks of age.

db/db mice = conditions: 30 and 100 mg/kg PO QD 7 days, no increased effect at 300 mg/kg
[1] = system: core clock gene mRNAs in liver; assay: Four day study, liver core clock gene mRNA, ICR mice; assay type: in vivo, mouse; conditions: 50 mg/kg PO BID 4 days, ZT6
Procedure: Male ICR mice (weighing 30-35 g), obtained from Charles River Laboratories (Hollister, Calif.), were used for the experiment following at least 3 days of acclimation. Mice were dosed with vehicle (WFI or 10% Kolliphor) or compound (50 mg/kg, dose volume 5 mL/kg, PO) for 4 days BID (twice a day), beginning in the afternoon of the first day. The last dose of compound or vehicle was administered on the morning of harvest. On the day of harvest (6 hours following the final dose), mice were euthanized by CO2 asphyxiation and 50 mg of liver tissue was excised and placed in a tube containing 500 μl of RNA later.
E.Z.N.A.® HP Total RNA Isolation Kits (R6812-01 and the protocol described in the Manual, Revised 2010) were utilized to prepare and isolate RNA from the liver samples. To prepare the RNA samples, 10-30 mg of sample was removed from RNA-Later and placed in a 1.5 ml microfuge tube. […]
RediPlate 96 RiboGreen RNA Quantification Kit (Invitrogen) RediPlate standard curve was prepared by transferring 20 μl reconstituted RNA standard to a RediPlate well reconstituted in 180 μl RediPlate TE buffer. […] After transferring 5 μl to RediPlate well reconstituted in 195 μl TE buffer and incubating 10 min. at RT, Fluorescence Intensity of wells with standards and samples were read in a Tecan M200 with Excitation set at 480 nm and Emission set at 520 nm with the gain set to ˜70%. […]

[2] = Pharmacokinetic analysis in ICR mice (plasma and liver); assay type: in vivo; conditions: male, plasma, po, mouse, 50 mg/kg P.O., Table 4, read-out: Total Plasma AUC, AUC (0-last)
Procedure: Male ICR mice (weighing 30-40 g, Charles River Laboratories) were used for the experiment with n=3 mice for each experimental group (27 mice total for the study). […] Blood and liver tissue were collected at the following time points after administration: 15, 30, 60, 90 minutes, 3, 6, 12 and 24 hours. A control group of animals (TO) was also sampled. Animals were euthanized with CO2 and the blood collected from the heart using cardiac puncture, transferred to an EDTA tube, and then centrifuged at 5400 rpm for 5 minutes at 4° C. The resultant plasma was frozen using dry ice and then stored at −80° C. until ready for assay. Liver tissue was removed from each animal, 0.5 g was collected in an eppendorff, frozen and submitted for pharmacokinetic measurement. […] Raw data was analyzed using WinNonLin for PK parameters (Cmax, Tmax, elimination t^1/2, MRT (mean residence time), AUC (area under the curve)−(0−last and % extrapolated).

## CN(CCOc1ccc(CC2SC(=O)NC2=O)cc1)c1ccccn1 (centres unmarked) [Rosiglitazone]
C57/Bl6J DIO mice
  glucose AUC calculated from the OGTT: 9858+/−1281 units

## O=C1C(F)CCN1CC(O)Cn1c2ccc(F)cc2c2cc(F)ccc21 (centres unmarked) [Compound 9, 1-(3-(3,6-difluoro-9H-carbazol-9-yl)-2-hydroxypropyl)-3-fluoropyrrolidin-2-one]
db/db mice
  glucose levels during the OGTT: dose dependent reduction in glucose levels
[1]
  Cry2 transcripts in liver: decrease
  liver Per2 expression: suppression
[2]
  AUC(0-t): 1910 ng·h/mL
